{"source": "ChEMBL document CHEMBL4138078", "about": "“Structure-based virtual screening and optimization of modulators targeting Hsp90-Cdc37 interaction” (Eur J Med Chem, 2017)", "species_on_record": "Homo sapiens", "test": "Inhibition of full length His-tagged HSP90/GST-tagged Cdc37 (unknown origin) interaction at 100 uM after 1 hr by HTRF assay relative to control", "procedure,_shortened": "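HTRF assay using His-tagged full-length Hsp90 and GST-tagged Cdc37 M, each 250 nM final, in PBS with an extra 400 mM KF, pH 7.4. Compound incubated 1 h at 37 °C. Anti-GST-Cryptate and anti-6His-XL665 then added, 0.5 h at 37 °C. Ex 320 nm; ratio = (665/620 nm) × 10000. No-compound negative control and reagent-only blank.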"}
{"smiles": "COc1cc(C(=O)OCCN2C(=O)C3C(N=C(N4CCN(C[C@H](O)CO)CC4)N3C)N(C)C2=O)cc(OC)c1OC", "note": "(stereo partly specified)", "values": [{"measurement": "inhibition", "result": 12.6, "unit": "%"}]}
